Data published in ChEMBL document CHEMBL2074557, “Disposition of ivermectin and cyclosporin A in CF-1 mice deficient in mdr1a P-glycoprotein” (Drug Metab Dispos, 1999).

Sequences of proteins named here, by UniProt entry; tags and fusion partners are left off.
UniProt P21447, whole entry: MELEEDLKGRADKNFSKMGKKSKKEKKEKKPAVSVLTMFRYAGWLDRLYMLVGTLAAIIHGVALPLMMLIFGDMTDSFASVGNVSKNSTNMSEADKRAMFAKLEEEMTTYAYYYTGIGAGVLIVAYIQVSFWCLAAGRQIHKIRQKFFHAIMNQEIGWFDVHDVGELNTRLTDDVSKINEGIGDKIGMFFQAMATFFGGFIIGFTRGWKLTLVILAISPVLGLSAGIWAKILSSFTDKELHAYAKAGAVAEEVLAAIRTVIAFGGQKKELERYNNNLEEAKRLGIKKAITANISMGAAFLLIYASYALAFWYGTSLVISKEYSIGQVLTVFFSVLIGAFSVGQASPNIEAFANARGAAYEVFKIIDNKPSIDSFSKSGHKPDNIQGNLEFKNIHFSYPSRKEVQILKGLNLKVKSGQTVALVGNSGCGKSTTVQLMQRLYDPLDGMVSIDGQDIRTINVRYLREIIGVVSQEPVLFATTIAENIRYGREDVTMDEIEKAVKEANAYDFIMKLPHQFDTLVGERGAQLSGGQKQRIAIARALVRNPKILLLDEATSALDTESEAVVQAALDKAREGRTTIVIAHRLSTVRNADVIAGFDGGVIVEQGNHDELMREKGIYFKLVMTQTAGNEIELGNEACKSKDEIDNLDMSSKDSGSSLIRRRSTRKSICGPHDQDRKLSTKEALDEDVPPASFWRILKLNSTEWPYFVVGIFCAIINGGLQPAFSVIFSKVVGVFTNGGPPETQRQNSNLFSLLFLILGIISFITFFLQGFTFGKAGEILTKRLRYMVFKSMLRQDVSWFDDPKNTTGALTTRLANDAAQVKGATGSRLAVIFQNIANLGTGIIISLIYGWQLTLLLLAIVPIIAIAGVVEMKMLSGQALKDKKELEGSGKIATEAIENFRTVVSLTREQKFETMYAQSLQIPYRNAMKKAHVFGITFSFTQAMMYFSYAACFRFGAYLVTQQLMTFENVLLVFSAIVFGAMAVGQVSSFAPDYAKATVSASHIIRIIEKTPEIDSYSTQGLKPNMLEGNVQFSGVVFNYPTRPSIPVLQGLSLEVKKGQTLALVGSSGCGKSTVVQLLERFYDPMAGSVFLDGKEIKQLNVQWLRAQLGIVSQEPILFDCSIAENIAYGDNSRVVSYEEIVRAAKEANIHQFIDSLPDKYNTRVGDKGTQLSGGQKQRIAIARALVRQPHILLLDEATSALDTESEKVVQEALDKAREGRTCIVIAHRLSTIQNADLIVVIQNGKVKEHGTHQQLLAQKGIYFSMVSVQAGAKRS

Biological target: ATP-dependent translocase ABCB1 (Mus musculus, UniProt P21447)
Assay: TP_TRANSPORTER: increase in brain concentration in PGP(-/-) mouse
Format: functional, organism-based
Conditions: in vivo

- Activity: substrate [+]
Sequence: IVERMECTIN
